Results as given in patent publication US11920136B2, “Transglutaminase-mediated conjugation” (Tallac Therapeutics, Inc., priority 2020, dated 2024).

What was measured:
CD22 = CD22 (Homo sapiens, UniProt P20273); type: binding; set-up: human CD22 (d1 to d7 domain according to NP_001762.2)
TLR9 = assay: Activation of TLR9 positive and TLR9 negative immune cells in human PBMCs (Example 22); type: cell-based
Description: For biological evaluation of CpG-oligonucleotides and antibody-CpG oligonucleotide conjugates, Trima residuals were received from Vitalant and diluted 1:2 with Phosphate Buffered Saline (PBS, Gibco). Diluted blood was split into two tubes and underplayed with 15 mL FICOLL® PAQUE medium (GE Healthcare). Tubes were centrifuged for 30 minutes at 400×g. PBMCs were collected from the interface, resuspended and washed in FACS buffer (PBS with 0.5% Bovine Serum Albumin (Gibco)). After one wash, PBMCs were resuspended in Complete RPMI (RPMI+10% FBS). PBMCs were immediately plated onto a 96-well format (500K/well) in Complete RPMI. Five-fold serial dilutions were added to the cells from 1 uM to 64 pM of CpG polynucleotides or 100 nM to 6.4 pM conjugated antibody at 37° C. under 5% CO2 for 18 hours. […] Cells were analyzed on ATTUNE™ NxT Flow Cytometer (Thermo Fisher Scientific), with subsequent data analysis by FLOWJO™ 10.7 (Treestar). […] B cells were identified as CD19+CD20+ cells, T cells as CD3+CD56−, DC as CD11chiHLADR+, and monocytes as CD14+ and level of activation marker was assessed by median fluorescent intensity. • TNT138a=anti-CD22 antibody having RH2 VH domain and RL1 N92S VL domain (SEQ ID Nos:65 and 87, respectively) conjugated to compound 7.7b (7-7) CpG (SEQ ID NO:35)

pDC = pDC activation by anti-BDCA2:CpG conjugates in human PBMCs; type: cell-based
Description: PBMCs were immediately plated onto a 96-well format (500K/well) in Complete RPMI (RPMI+10% FBS). Five-fold serial dilutions were added to the cells from 100 nM to 6.4 pM of antibody and conjugated antibody and 1 uM to 64 pM of CpG polynucleotides at 37° C. under 5% CO2 for 48 to 96 hours. Cells were pelleted by centrifugation for five minutes at 400×g and stained at 4° C. in Fixable Viability Dye eFluor 780 (Thermo Fisher Scientific) diluted 1:4000 in PBS. Cells were centrifuged and stained at 4° C. in FACS buffer for 30 minutes containing FcR Blocking Reagent (Miltenyi Biotec), anti-CD19, anti-CD20, anti-CD40, anti-HLADR and anti-CD80 for B cell assays and anti-CD14, anti-CD3, anti-CD19, anti-CD14, anti-CD123, antiCD11 c and anti-CD86 for pDC assays. Cells were centrifuged and washed twice in FACS buffer and fixed in 0.5% paraformaldehyde. COUNTBRIGHT™ Absolute Counting Beads (Thermo Fisher Scientific) were added to each well to count the number of cells. Cells were analyzed on ATTUNE™ NxT Flow Cytometer (Thermo Fisher Scientific), with subsequent data analysis by Flowjo 10.7 (Treestar). Dead cells were excluded by gating on the eFluor 780-negative population. Lineage specific cells were first excluded (CD19, CD3, CD14) prior to gating CD123^+CD11c^− cells to identify pDC and gating CD19^+, CD20^+ or CD19^+CD20^+ cells to identify B cells. […]

B1: TNT74 DAR1: humanized anti-CD22 antibody TNT74 "conjugated with CpG (SEQ ID NO: 3) with a DAR1 configuration" (conjugate)
heavy: QVQLLESGGGVVQPGGSLRLSCAASGFAFSIYDMNWVRQAPGKGLEWVSAISSGGGTTYYADSVKGRFTISRDNAKNSLYLQMNSLRAEDTAVYYCARHSGYGTHWGVLFAYWGRGTLVTVSSASTKGPSVFPLAPSSKSTSGGTAALGCLVKDYFPEPVTVSWNSGALTSGVHTFPAVLQSSGLYSLSSVVTVPSSSLGTQTYICNVNHKPSNTKVDKKVEPKSCDKTHTCPPCPAPEAAGAPSVFLFPPKPKDTLMISRTPEVTCVVVDVSHEDPEVKFNWYVDGVEVHNAKTKPREEQYNSTYRVVSVLTVLHQDWLNGKEYKCKVSNKALPAPIEKTISKAKGQPREPQVYTLPPSREEMTKNQVSLTCLVKGFYPSDIAVEWESNGQPENNYKTTPPVLDSDGSFFLYSKLTVDKSRWQQGNVFSCSVMHEALHNHYTQKSLSLSPGRPQGFGPP
light: DIQMTQSPSSVSASVGDRVTITCRASQDIHGYLAWYQQKPGKAPKLLIYYTSSLQSGVPSRFSGSGSGTDFTLTISSLQPEDFATYYCQQGNTLPWTFGQGTKLEIKRTVAAPSVFIFPPSDEQLKSGTASVVCLLNNFYPREAKVQWKVDNALQSGNSQESVTEQDSKDSTYSLSSTLTLSKADYEKHKVYACEVTHQGLSSPVTKSFNRGEC
ka (CD22): 114000 M⁻¹ s⁻¹ | kd (CD22): 0.0021 s⁻¹

B2: TNT138a: "anti-CD22 antibody having RH2 VH domain and RL1 N92S VL domain (SEQ ID Nos:65 and 87" conjugated to compound 7.7b CpG (conjugate)
VH: QVQLLESGGGVVQPGGSLRLSCAASGFAFSIYDMNWVRQAPGKGLEWVSAISSGGGTTYYADSVKGRFTISRDNAKNSLYLQMNSLRAEDTAVYYCARHSGYGTHWGVLFAYWGRGTLVTVSS
VL: DIQMTQSPSSLSASVGDRVTITCRASQDIHGYLNWYQQKPGKAPKLLIYYTSILHSGVPSRFSGSGSGTDFTLTISSLQPEDFATYFCQQGSTLPWTFGQGTKLEIK
modifications: conjugated to CpG 7.7b
activation of TLR9 negative immune cells (CD69 in T cells) (TLR9): did not activate TLR9 negative immune cells

B3: CpG 12070:anti-BDCA2 conjugate: "pDC targeting antibody, anti-BDCA2 (SEQ ID NOs: 111 and 112 for VH and VL sequences, respectively), was similarly conjugated with CpG 12070 (SEQ ID NO: 3)" (conjugate)
VH: DVQLVESGGGLVKPGGSLRLSCAASGFTFSTYTMSWVRQAPGKGLEWVATISPGDSFGYYYPDSVQGRFTISRDNAKNSLYLQMNSLRAEDTAVYYCTRDIYYNYGAWFAYWGQGTLVTVSS
VL: DIQLTQSPSSLSASVGDRVTITCKASQSVDYDGDSYMNWYQQKPGKAPKLLIYAASTLESGVPSRFSGSGSGTDFTLTISSLQPEDFATYYCAEDRTFGQGTKVEIK
DNA: ucgtcgtgtcgtt
modifications: transglutaminase conjugation; (1)..(13) Linkages as shown in Table 2 of the specification; (1)..(13) Modified as shown in Table 2 of the specification
IFNα expression (pDC): induced IFNα expression
